Read-outs that look alike come from different tables or passages of the source. Marks after values point to notes of the source that are not given here.
Columns and labels:
CHO cells' IRAP = CHO cells' IRAP (Cricetulus griseus, UniProt A0A8C2M8D5); assay: IRAP inhibition, concentration-response on membrane preparations from CHO cells; assay type: biochemical, Chinese hamster; details: for pIC50: mean ± SD (n test occasions)
Method: Membrane preparations from frozen CHO cells and HEK293T cells with overexpressed IRAP and APN were prepared and handled as previously described. Details for the assay used to evaluate the inhibitory activity of the compounds have already been published.

By UniProt entry, the sequences of proteins in these tests, tags left out. Residues count along the entry.
UniProt A0A8C2M8D5, 1-1025: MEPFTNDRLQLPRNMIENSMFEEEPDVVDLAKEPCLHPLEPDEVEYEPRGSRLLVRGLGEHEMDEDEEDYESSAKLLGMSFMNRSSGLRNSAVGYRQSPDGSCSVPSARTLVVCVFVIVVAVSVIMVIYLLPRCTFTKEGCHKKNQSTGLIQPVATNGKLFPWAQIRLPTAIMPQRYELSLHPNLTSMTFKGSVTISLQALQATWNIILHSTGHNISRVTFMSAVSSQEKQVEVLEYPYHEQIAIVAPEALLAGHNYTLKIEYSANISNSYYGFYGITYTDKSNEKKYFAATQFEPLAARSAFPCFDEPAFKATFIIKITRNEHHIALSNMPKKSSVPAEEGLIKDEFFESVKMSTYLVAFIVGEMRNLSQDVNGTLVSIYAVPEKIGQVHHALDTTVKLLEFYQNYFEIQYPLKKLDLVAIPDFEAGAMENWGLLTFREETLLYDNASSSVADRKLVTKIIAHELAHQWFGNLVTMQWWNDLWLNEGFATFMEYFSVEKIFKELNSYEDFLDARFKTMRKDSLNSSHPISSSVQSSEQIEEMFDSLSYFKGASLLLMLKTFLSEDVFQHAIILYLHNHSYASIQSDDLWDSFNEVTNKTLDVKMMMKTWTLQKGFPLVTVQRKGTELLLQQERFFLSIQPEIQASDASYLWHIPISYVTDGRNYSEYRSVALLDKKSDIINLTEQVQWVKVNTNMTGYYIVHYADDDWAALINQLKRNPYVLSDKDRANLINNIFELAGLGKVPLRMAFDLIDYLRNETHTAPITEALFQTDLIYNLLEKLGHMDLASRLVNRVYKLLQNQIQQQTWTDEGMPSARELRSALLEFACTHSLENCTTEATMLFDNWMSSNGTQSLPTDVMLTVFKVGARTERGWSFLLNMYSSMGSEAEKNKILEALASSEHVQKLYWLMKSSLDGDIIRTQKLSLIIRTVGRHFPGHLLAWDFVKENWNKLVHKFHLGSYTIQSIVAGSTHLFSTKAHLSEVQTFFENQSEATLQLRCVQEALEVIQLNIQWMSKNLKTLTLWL
UniProt Q9UIQ6, whole entry: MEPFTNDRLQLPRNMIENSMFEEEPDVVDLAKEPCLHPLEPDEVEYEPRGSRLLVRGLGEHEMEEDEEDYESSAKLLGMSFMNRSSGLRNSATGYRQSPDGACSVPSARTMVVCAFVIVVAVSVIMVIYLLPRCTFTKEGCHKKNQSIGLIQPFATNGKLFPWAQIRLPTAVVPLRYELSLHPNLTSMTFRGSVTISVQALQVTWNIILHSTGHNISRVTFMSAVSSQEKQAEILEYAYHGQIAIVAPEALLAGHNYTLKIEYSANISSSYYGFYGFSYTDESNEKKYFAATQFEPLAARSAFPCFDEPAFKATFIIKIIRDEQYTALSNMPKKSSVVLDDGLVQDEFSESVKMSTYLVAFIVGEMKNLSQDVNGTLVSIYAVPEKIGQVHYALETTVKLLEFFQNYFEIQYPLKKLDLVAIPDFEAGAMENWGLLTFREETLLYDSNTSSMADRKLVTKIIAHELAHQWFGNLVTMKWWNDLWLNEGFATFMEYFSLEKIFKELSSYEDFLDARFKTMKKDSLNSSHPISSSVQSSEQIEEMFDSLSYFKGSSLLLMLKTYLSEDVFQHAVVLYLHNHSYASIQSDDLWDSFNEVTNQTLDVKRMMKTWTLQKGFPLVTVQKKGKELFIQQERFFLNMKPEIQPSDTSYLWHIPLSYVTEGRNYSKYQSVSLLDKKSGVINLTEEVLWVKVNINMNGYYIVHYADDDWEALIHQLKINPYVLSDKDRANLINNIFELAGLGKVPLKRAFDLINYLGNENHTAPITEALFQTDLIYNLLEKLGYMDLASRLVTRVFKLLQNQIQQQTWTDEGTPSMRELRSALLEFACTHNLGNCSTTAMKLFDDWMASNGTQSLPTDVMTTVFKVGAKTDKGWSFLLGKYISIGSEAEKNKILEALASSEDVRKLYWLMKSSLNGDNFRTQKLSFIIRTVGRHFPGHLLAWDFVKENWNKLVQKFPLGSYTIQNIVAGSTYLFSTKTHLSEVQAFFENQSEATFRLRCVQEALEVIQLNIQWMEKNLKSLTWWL
UniProt P15144, whole entry: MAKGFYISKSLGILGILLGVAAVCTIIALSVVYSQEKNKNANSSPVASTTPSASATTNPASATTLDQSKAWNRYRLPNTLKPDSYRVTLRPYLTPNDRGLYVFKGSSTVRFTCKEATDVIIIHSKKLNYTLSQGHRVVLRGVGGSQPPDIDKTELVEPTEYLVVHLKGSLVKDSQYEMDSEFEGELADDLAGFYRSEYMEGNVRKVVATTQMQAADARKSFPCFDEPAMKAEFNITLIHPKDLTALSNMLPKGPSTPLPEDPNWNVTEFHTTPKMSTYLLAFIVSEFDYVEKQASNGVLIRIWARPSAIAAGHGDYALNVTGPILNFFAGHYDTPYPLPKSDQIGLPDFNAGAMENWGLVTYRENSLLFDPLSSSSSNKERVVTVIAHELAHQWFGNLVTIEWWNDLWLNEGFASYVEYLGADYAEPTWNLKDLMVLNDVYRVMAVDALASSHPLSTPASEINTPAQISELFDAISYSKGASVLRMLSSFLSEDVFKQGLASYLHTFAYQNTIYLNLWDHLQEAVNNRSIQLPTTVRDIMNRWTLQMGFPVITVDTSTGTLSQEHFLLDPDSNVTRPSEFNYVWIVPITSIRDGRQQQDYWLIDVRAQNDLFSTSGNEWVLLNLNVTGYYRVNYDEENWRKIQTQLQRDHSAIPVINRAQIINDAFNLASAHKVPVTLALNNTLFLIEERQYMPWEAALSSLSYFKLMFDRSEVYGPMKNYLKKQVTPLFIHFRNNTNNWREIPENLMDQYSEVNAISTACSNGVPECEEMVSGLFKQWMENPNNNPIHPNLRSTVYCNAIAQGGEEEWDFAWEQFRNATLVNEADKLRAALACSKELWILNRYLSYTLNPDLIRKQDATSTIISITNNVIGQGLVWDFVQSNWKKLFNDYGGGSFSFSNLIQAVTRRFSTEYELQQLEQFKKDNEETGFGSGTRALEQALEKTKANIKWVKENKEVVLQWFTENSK

human IRAP = human IRAP (Homo sapiens, UniProt Q9UIQ6); assay: Inhibition of human membrane-bound IRAP overexpressed in HEK293 cells (hIRAP); details: for IC50: read-out: hIRAP IC50
Method: (§1) Human IRAP and APN were overexpressed, as previously described.
(§2) Membrane preparations from frozen CHO cells and HEK293T cells with overexpressed IRAP and APN were prepared and handled as previously described.
(§3) Details for the assay used to evaluate the inhibitory activity of the compounds have already been published.

Human plasma stability = details: after 18 h incubation
Method: (§4) Pre-clinical profiling of the compounds was performed at AstraZeneca R&D in Gothenburg, Sweden, applying an integrated panel of assays referred to as the DMPK Wave 1 panel.

[1] = target: human aminopeptidase N (APN) (Homo sapiens, UniProt P15144); assay: Inhibition of human aminopeptidase N overexpressed in HEK293 cells
Method: as §1, §2, §3

[2] = LogD7.4 (DMPK Wave 1 panel); details: pH 7.4; average ± SD of three test occasions
Method: as §4

[3] = Dried DMSO solubility in aqueous phosphate buffer pH 7.4; details: aqueous phosphate buffer (PBS) at pH 7.4
Method: as §4

[4] = Rat hepatocytes intrinsic clearance
Method: as §4

[5] = Human liver microsome intrinsic clearance; details: human liver microsomes
Method: as §4

[6] = Table 2, synthesized and resynthesized analogs, CHO cells' IRAP, highest concentration tested 125 µM
[7] = Table 2, synthesized and resynthesized analogs, CHO cells' IRAP
[8] = Table 4, IRAP from Chinese Hamster Ovary Cells
[9] = read-out: CHO IRAP IC50, Table 4, IRAP from Chinese Hamster Ovary Cells

fold more potent than the less active diastereomer 6a_dia1 (CHO cells' IRAP; CHO cells' IRAP) [fold]	IC50 (CHO cells' IRAP; [6]) [µM]	pIC50 (CHO cells' IRAP; [7])	CHO IRAP pIC50 (CHO cells' IRAP; [8])	IC50 (CHO cells' IRAP; [9]) [µM]	hIRAP pIC50 (human IRAP)	IC50 (human IRAP) [µM]	Plasma Stab (Human plasma stability) [% compound remaining]	APN IC50 (µM)/pIC50 [1]	LogD7.4 [2]	Sol. (dried DMSO solubility) [3]	Rat hep. Clint [4]	Rat hep. t ½ [4] [min]	HLM Clint [5]	HLM t ½ [5] [min]	Compound
15	1	6 )	6.0 ± 0.1	1	6.0	1	104 ± 3	inactive (1)	2.6	76 ± 14 ^[g] µM	>300 ^[h] µL/min/10^6 cells	< 2.3	>300 ^[h] µL/min/mg	< 2.3	COc1ccccc1-c1nc(C2CCCN2C(=O)N[C@@H](C)c2ccccc2)n2ccccc12 (single isomer, unassigned) [6a_dia2]
–	16	4.8 )	4.8 ± 0.2	16	5.2	6.3	102 ± 5	–	2.8	40–124 ^[f] µM	>300 ^[h] µL/min/10^6 cells	< 2.3	>300 ^[h] µL/min/mg	< 2.3	COc1ccccc1-c1nc(C2CCCN2C(=O)N[C@@H](C)c2ccccc2)n2ccccc12 (single isomer, unassigned) [6a_dia1]

Reference: paper PMC10931632, “Inhibition of Insulin-Regulated Aminopeptidase by Imidazo [1,5-α]pyridines—Synthesis and Evaluation” (International Journal of Molecular Sciences, 2024)
